This is a selection; strong and weak results do not stand in their true shares. Some of these compounds have results that are not shown, active ones among them. Inconclusive results are not listed. Active and inactive are the calls of the source. Calls follow the shape of the full dose curve.
% is scaled to controls: 0 for no effect and ±100 for the full control effect.

The experiment can be described thus: Primary qHTS Assay for Foot and Mouth Disease Virus Antivirals against NCGC Sytravon and CBC Compound Libraries: Firefly Luciferase Signal. Also: nearly all actives have a fitted effect of over 60% in size. Particulars: FMDV antiviral cell assay; at 57.5 µM (top of the series). A general note: In qHTS, concentration-response curves come from the screen itself.
In the case of `CC(CCN(CCCl)CCCl)c1ccccc1` (stereo not given), the activity change, negative = inhibition was inactive: -21.1%. In the case of `CN(C)C1(CNC(=O)c2cccc(Cl)c2)CCCCC1`, the activity change, negative = inhibition is inactive: -1.77%. The figure for `CN(C)C1(CNC(=O)c2ccccc2F)CCCCC1` is inactive: -21.7%.

As for `CN(C)C1(CNC(=O)c2ccccc2[N+](=O)[O-])CCCCC1`, the activity change, negative = inhibition is inactive: -3.59%.

For `CCCCOc1ccccc1C(=O)NCC1(N(C)C)CCCCC1`, the activity change, negative = inhibition was inactive: -24.3%. Take `CCOc1ccccc1C(=O)NCC1(N(C)C)CCCCC1`: the activity change, negative = inhibition was inactive: 8.91%. The figure for `CN(C)C1(CNC(=O)c2cccs2)CCCCC1` is inactive: -2.09%; for `CCOc1cccc(C(=O)NCC2(N(C)C)CCCCC2)c1` it is inactive: -16.2%; for `O=C(NCC1(N2CCOCC2)CCCCC1)c1cc(=O)c2ccccc2o1` it is inactive: -4.95%.

As to `COc1ccc(C(=O)NCC2(N(C)C)CCCCC2)cc1Cl`, the activity change, negative = inhibition is inactive: -21.4%. The figure for `COc1cccc(C(=O)NCC2(N3CCOCC3)CCCCC2)c1` is inactive: -18.8%. Consider `CC(C)COc1ccc(C(=O)NCC2(N(C)C)CCCCC2)cc1`, for which the activity change, negative = inhibition was inactive: -15.8%. The figure for `COc1cc(C(=O)NCC2(N(C)C)CCCCC2)cc(OC)c1OC` is inactive: 11.3%.

In the case of `Cc1cccc(C(=O)NCC2(N(C)C)CCCCC2)c1`, the activity change, negative = inhibition was inactive: -16.9%. The figure for `CC(C)Oc1ccc(C(=O)NCC2(N(C)C)CCCCC2)cc1` is inactive: 6.2%.

For the origin of these results see PubChem BioAssay AID1745856 (National Center for Advancing Translational Sciences (NCATS), 2022).
